The source of these data is US20260070927A1, “INDAZOLE MACROCYCLES FOR THE TREATMENT OF AUTOIMMUNE DISEASE” (Hoffmann-La Roche Inc., priority 2022, published 2026).

Chains of the proteins cited; added tags and fusions are not shown. Residues count along the entry.
UniProt Q86WV6, 139-379 limits assumed: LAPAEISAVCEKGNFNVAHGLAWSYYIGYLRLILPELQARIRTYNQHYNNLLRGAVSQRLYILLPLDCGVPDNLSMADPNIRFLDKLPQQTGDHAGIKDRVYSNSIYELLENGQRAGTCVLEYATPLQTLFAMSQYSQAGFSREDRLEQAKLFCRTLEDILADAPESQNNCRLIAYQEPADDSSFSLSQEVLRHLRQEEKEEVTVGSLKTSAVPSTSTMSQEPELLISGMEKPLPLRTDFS

Test [1] deals with human stimulator of interferon genes (STING) (139-379) (Homo sapiens (Human), UniProt Q86WV6). The test is described as follows: Microliter plate-based TR-FRET competition-binding assay for binders of STING. The settings on record: read-out: FRET_IC50, Alexa488 probe. As to the method:
This is the competition-binding assay to test the compounds' potency to the C-terminal Domain (CTD) and ligand-binding domain of human stimulator of interferon genes (STING). STING (139-379, Q86WV6, http://www.uniprot.org/uniprot) recombinant protein (in 20 mM Tris, 150 mM NaCl, pH 8.0, and expression in Escherichia coli (E. coli) BL21 (DE3)) with a C-terminal flag-tag was employed for the assay. When Alexa-488 labeled active site probe (refer to patent WO2017/175156 A1) bounds to STING (139-379), it accepts the 485 nm emission from Tb-M2-Flag-STING and results in an increase in fluorescence at 520 nm. Compounds that compete for the probe-binding site will reduce 520 nm signal. […] Plates were centrifuged for 1 min at 1000 rpm, incubated for 30 min at room temperature, and then measured the dual fluorescence emission at 520 nm/485 nM following 320 nm laser excitation on an Envision plate reader (Perkin-Elmer). The compounds' effect on the STING binding is detected by measuring ratiometric fluorescence from time-resolved FRET. The percentage of inhibition of at each compound concentration is calculated on the basis of their changes of TR-FRET efficiency relative to the change of TR-FRET caused by positive control 2′3′cGAMP (Sigma, cat: SML1229).

Test [2] deals with STING (IFN-β in hPBMC). The test is described as follows: hPBMC cytokine functional assay (IFN-β decrease after Baculovirus stimulation). The format is cell-based, human. The settings on record: read-out: hPBMC_IC50, Baculovirus MOI 40, 24 hours. As to the method:
The inhibition of STING by compounds could be measured by the decrease of IFN-β in hPBMC, which is stimulated by a double stranded DNA virus Baculoviurs (Purchased from Genescript, pCMV-Dest Vector virus generation P2 BV stock virus, Sf-900 II medium with 5% FBS, Lot C9835DK230-2/P4DL001). Frozen hPBMC cells (purchased from Stemcell Technologies, cat number is 70025, Lot 191070803C) were thawed at 37° C. water bath, then cells were re-suspended in 50 ml tube using 20 ml Cell culture medium, and then centrifuged for 5 min at 2000 rpm before the supernatant was removed carefully. The cells were re-suspended in culture medium (RPMI-1640 with 1.5 g/L NaHCO3, 4.5 g/L glucose, 10 mM HEPES and 1 mM Na-pyruvate, 10% HI-FBS); 65 μL of the cell suspension was dispensed into 384 well plate (70K cells/well) by Multidrop Combi with at least 3 hours incubation at 37° C., 5% CO2 cell incubator.
Then 4 μL of compound solution per well (final 0.5% DMSO) was transferred by Agilent Bravo followed by infection with 11 μL of Baculovirus at a final MOI of 40. The level of IFN-β secreted in the supernatant of hPBMC was determined after 24 hours of incubation at 37° C. cell incubator by human IFN-β HTRF assay (Cisbio, cat: 62HIFNBPEH) following the manufacture's instruction. CellTiter-Glo kit (Promega, cat: G7573) was applied for the cell viability evaluation using Envision.

As for `CN1CCCc2c3c(cccc3nn2C)-c2nccc(n2)N[C@H]2C[C@@H](C1=O)N(c1ncnc3c1cnn3-c1ccc(F)cc1F)C2`, the IC50 in test [1] was 0.2 nM; in test [2], 397 nM.
